Assay [1] addresses T1, REV-ERBα LBD (Homo sapiens, UniProt P20393).
T1 sequence (P20393 284-614 limits assumed): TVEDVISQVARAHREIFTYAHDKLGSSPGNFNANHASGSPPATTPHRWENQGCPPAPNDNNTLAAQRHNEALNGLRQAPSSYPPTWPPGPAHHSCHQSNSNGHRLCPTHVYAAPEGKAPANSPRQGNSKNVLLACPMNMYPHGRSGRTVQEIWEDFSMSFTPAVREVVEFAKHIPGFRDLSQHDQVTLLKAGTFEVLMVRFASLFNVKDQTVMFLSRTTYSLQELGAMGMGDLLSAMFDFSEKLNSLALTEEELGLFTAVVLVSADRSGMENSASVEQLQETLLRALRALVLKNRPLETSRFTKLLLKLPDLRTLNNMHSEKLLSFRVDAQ
Description: FRET assay of NCoR ID1 CoRNR box recruitment. Details: agonist-dependent recruitment of NCoR ID1 CoRNR box to the REV-ERBα-LBD. The class given is biochemical. The source says: Our previous work on the structure activity relationship of GSK4112/SR9009 chemical scaffold (Fig. 1a) as well as that of others[18]–[20], led us to seek other scaffolds that would provide improved properties. […] We noted a recent patent that described a series of REV-ERB agonists (6-substituted[1,2,4]triazolo[4,3-b]pyridazines) in assays that detected the ability of small molecules to enhance the interaction of REV-ERBα with NCoR either in biochemical or cell-based assays. […] A FRET assay that detects agonist-dependent recruitment of NCoR ID1 CoRNR box to the REV-ERBα-LBD was utilized to compare the activity of STL1267 to SR9009 (Fig. 1c). We observed dose-dependent recruitment of NCoR peptide with increasing amounts of either STL1267 or SR9009. […] The high potency of STL1267 led us to consider the development of a radioligand binding assay that would detect direct binding of ligands to the LBD of REV-ERBα and REV-ERBβ.
A serial dilution of REV-ERB agonist, STL1267 or SR9009, was prepared in buffer (0.1% Triton, 5 mM DTT, PBS). Histidine tagged REV-ERBα/β complexed with heme was added to each well to a final concentration of 4 nM. […] The lanthascreen assay protocol (Dual PMT, excitation 340 nm, dual emission 495/520, Gain 110/110) was used to read the plate.

Assay [2] has as its target T2, full length human REV-ERBα (Homo sapiens, UniProt P20393).
T2 construct: expressed in transfected cells; host or cells: HEK293 cells with stably integrated GAL4-UAS luciferase reporter
Description: cell-based two-hybrid luciferase reporter assay (REV-ERBα-FL/GAL4-DBD + NCoR-Vp16, HEK UAS-luc cells). Conditions: HEK293 UAS-luc cells, 24 h; read-out: EC50, recruitment of NCoR-Vp16. The source says:
We next assessed the activity of STL1267 in a cell-based assay. We utilized a chimeric construct expressing full length human REV-ERBα (REV-ERBα-FL) fused to the DNA-binding domain (DBD) of yeast transcription factor GAL4. HEK293 cells stably expressing a GAL4 responsive luciferase reporter were co-transfected with REV-ERBα GAL4-DBD and NCoR-Vp16. This format of the assay essentially functions as a mammalian 2-hybrid assay and detects REV-ERB agonists as activators of transcription effectively enhancing the sensitivity of such an assay from the typical one hybrid system that detects enhancement of transcriptional repression. […] The maximal efficacy for recruitment of NCoR-VP16 was ~8-fold greater for STL1267 vs. SR9009.
The NCoR-Vp16 plasmid and REV-ERBα/β-FL GAL4-DBD wild-type or point mutation plasmids were incubated with the transfection agent, Lipofectamine 2000. GFP plasmid was also in the transfection mix to confirm transfection efficiency. HEK cells were plated in 10 cm dishes for western blot analysis, and HEK UAS-luc cells were plated in 96 well plates for luciferase assay analysis. Prior to cellular adherence, transfection mix was added. The cells and transfection mix were incubated at 37 °C in a humidified atmosphere of 5% CO2. […] Cells were incubated with the compound for 24 h, prior to luciferin addition and luminescence read out.
A general note: In a reporter assay the amount or activity of a reporter protein is the signal.

Assay [3] deals with T1, REV-ERBα LBD. Put plainly: scintillation proximity radioligand binding assay with 3H-STL1267. More on the design: made in house. Conditions: SPA, read-out: Ki, displacement of 3H-STL1267. (SPA uses beads or plates that emit light when radiolabelled molecules are held near them.)

With `CCOC(=O)N1CCC(CN(Cc2ccc(Cl)cc2)Cc2ccc([N+](=O)[O-])s2)C1` (stereo not drawn) [SR9009, reference compound], the EC50 on REV-ERBα LBD [1] is 1.9 µM; in assay [2], 4.7 µM. On REV-ERBα LBD [3], the Ki was 0.68 µM.

For orientation: EC50 means the midpoint of the concentration-response curve. Broadly, the Ki is the dissociation constant of the complex between target and ligand, obtained from inhibition or displacement.

For the origin of these results see paper PMC9681850, “Structural basis of synthetic agonist activation of the nuclear receptor REV-ERB” (Nature Communications, 2022).
